Assay results published in ChEMBL document CHEMBL4014327 (J Med Chem, 2017).
pIC50: −log10 of the molar value.

Protein sequences, listed by entry. Tags and fused reporters are not part of them.
UniProt Q9NWZ3, whole entry: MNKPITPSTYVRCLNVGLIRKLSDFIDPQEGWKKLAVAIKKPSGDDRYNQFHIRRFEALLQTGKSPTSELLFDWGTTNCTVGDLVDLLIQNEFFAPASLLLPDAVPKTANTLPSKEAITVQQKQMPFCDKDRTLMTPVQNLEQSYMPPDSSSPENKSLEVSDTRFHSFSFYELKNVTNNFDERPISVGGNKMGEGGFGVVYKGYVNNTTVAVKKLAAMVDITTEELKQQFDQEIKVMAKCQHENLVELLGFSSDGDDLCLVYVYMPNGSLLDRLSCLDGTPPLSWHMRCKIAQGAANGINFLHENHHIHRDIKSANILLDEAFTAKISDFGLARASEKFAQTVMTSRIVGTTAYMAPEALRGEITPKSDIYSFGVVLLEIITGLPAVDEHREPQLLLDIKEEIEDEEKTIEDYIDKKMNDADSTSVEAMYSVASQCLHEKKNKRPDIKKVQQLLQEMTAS

Legend:
[1] = target: T1, Interleukin-1 receptor-associated kinase 4 (Homo sapiens, UniProt Q9NWZ3); experiment: Inhibition of IRAK4 in human PBMC assessed as reduction in R848-stimulated TNF alpha production after 3 hrs
[2] = target: T1, Interleukin-1 receptor-associated kinase 4; experiment: Inhibition of N-terminal His6-tagged human full length IRAK4 preincubated for 20 mins followed by biotinylated-AGAGRDKYKTLRQIR substrate addition in presence of ATP measured after 60 mins by DELFIA method

SMILES	pIC50 [1]	pIC50 [2]
COc1cc2c(OC[C@H]3NC(=O)[C@@H](F)[C@H]3C)nccc2cc1C(N)=O	7.90	
COc1cc2c(OC[C@H]3NC(=O)[C@@]4(F)[C@@H]3[C@@H]4C)nccc2cc1C(N)=O		9.22
COc1cc2c(OC[C@@H]3CCC(=O)N3)ccnc2cc1C(N)=O	5.67	8.23
